Test results taken from ChEMBL document CHEMBL4007441, “Novel Design of Heptad Amphiphiles To Enhance Cell Selectivity, Salt Resistance, Antibiofilm Properties and Their Membrane-Disruptive Mechanism” (J Med Chem, 2017).

Test system: Escherichia coli
Settings: ATCC 25922

Sequence: GENTAMICIN
- MIC: 0.5 µg/mL
